Data published in patent US20240008524A1, “CONSUMABLE” (Nicoventures Trading Limited, priority 2020, published 2024).

Assay: Water solubility of flavoring agents and their flavor glucosides
Details: flavoring agent in the form of its flavor glucoside

Q: For “5-methyl-2-(1-methylethyl)phenyl-O-β-D-glucopyranoside [Thymol glucoside]”, which “Glucoside water solubility” value is on record?
A: 2.68 g/L

Q: With “endo-(1S)-1,7,7-trimethylbicyclo[2.2.1]heptan-2-yl-O-β-D-glucopyranoside [Borneol glucoside]” as the substance, how does the “Glucoside water solubility” value read?
A: 16.4 g/L
